Screening data: PubChem BioAssay, National Center for Advancing Translational Sciences (NCATS)
B2AR arrestin: recruits beta-arrestin to the human beta2-adrenergic receptor | Potency, µM (titrated, usually from 46.1 µM), for inactives: top-dose activation, usual class: activators | AID 492947 | 330,000 compounds, 0.02% hits | beta-arrestin recruitment to beta2AR, cell-based reporter | P07550; active = well fitted curve in the direction sought with a large enough effect; inconclusive = small, poorly fitted or top-dose-only effect, or another doubt; inactive = no such curve, though single readings can be large; an effect the other way counts as inactive or inconclusive;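 also: potency is read from the fitted curve at half-maximal effect; 0% = DMSO controls and full agonism = EC100 isoproterenol or metaproterenol; nearly all actives have a fitted effect of over 65% in size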
GALK inhibitor: blocks human galactokinase activity | P51570 | Purified GALK, Kinase-Glo residual ATP luminescence | Potency, µM (top dose mostly 57.5 µM), without a hit: at the highest dose activity change, negative = inhibition, usual class: inhibitors | 270,000 compounds, 0.007% hits | AID 1868; active = well fitted curve in the direction sought with a large enough effect; inconclusive = small, poorly fitted or top-dose-only effect, or another doubt; inactive = no such curve, though single readings can be large; an effect the other way counts as inactive or inconclusive; also: potency is read from the fitted curve at half-maximal effect; % is scaled to controls: 0 for no effect and ±100 for the full control effect
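Luminescence from leftover ATP (Ultra-Glo luciferase/luciferin) served as read-out after a 1 h room-temperature reaction of 5 nM GALK with 35 uM ATP and 100 uM galactose.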
FBPA coupling cs: inhibits coupling enzyme system, counter-screen for aldolase hits. coupling enzyme system counterscreen, AmpLite Red fluorescence. activity change, negative = inhibition, % at 58.2 µM, hits read low. 290,000 compounds, 0.67% hits; in the data active = activity change below about -30%; also: % is scaled to controls: 0 for no effect and ±100 for the full control effect
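Activity here indicates interference with the coupling reaction, not aldolase inhibition. Compounds at 57.5 uM final met coupling enzymes for 10 min at RT; substrate and AmpLite Red detection followed, with a 525/598 nm fluorescence read after 20 min.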
miR-21 reporter: raises the signal of a miR-21 reporter; 340,000 tested, under 10 active; HeLa miR-21 FLuc reporter, luciferase, 48 h; Potency, µM (highest dose often 38.3 µM), without a hit: top-dose reporter change, positive = more light; active = well fitted rising curve with a large enough effect; inconclusive = small, poorly fitted or top-dose-only effect; inactive = no such curve, though single readings can be large or run the other way;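 also: % of control where 0% means no effect; miR-21 action dims this reporter so a rising signal means less miR-21 action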
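HeLa cells stably expressing CMV-driven firefly luciferase with a downstream miR-21 binding sequence, endogenously expressing miR-21, were treated with titrations (up to about 40uM final) for 48 hours at 37 degree Celsius. Luciferase luminescence was read after lysis.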
Giardia killer: Giardia lamblia killing; Giardia lamblia trophozoite viability; activity change, % at 7.66 µM, hits read low; 340,000 compounds, 0.15% hits; in the data active = activity change below about -80%; inconclusive = between about -30% and that limit;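 also: parasites exposed to compound for two days anaerobically before the ATP read; % is scaled to controls: 0 for no effect and ±100 for the full control effect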
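Compounds were tested on trophozoites seeded at 100 cells/well and held 48 hrs at 37 deg C anaerobically. An ATP-based luminescent kit measured the remaining live cells.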
uPA surface inh: inhibitors of cell surface uPA generation. cell surface uPA generation assay, qHTS. Potency, µM (doses to about 38.3 µM), for inactives: at the highest dose activity change, negative = inhibition, hits mostly inhibitors. 330,000 compounds, 0.31% hits. AID 540303; active = well fitted inhibition curve with a large enough effect; inconclusive = small, poorly fitted or top-dose-only effect; inactive = no such curve, though single readings can be large or run the other way; tested in mouse RAW 264.7 cells; also: potency is read from the fitted curve at half-maximal effect; % is scaled to controls: 0 for no effect and ±100 for the full control effect; nearly all actives have a fitted effect of over 55% in size
Casp1 catalase: counter-screen for redox active human caspase-1 inhibitors with catalase | shares compounds with FBPA coupling cs | caspase-1 Ac-WEHD-AFC fluorescence rate, catalase buffer | Potency, µM (highest dose often 57.5 µM), for inactives: at the highest dose activity change, negative = inhibition, actives largely listed as inhibitors | 30 tested, under 10 active | AID 888
CASP1 inh CRC: blocks human caspase-1 activity in concentration-response | purified caspase-1, fluorogenic substrate cleavage | Potency, µM (series often up to 57.5 µM), without a hit: top-dose activity change, negative = inhibition, hits mostly inhibitors | 60 compounds, 20% hits | shares compounds with FBPA coupling cs
Casp7 confirm: confirmation of allosteric or competitive inhibitors of human caspase-7; Potency, µM (series often up to 57.5 µM), inactives show at the top dose activity change, negative = inhibition, hits mostly inhibitors; recombinant caspase-7, fluorogenic substrate cleavage; shares compounds with FBPA coupling cs; 60 tested, under 10 active; active = well fitted inhibition curve with a large enough effect in the main read-out, with a control signal flat, not every such curve was filed as active; inconclusive = small, poorly fitted or top-dose-only effect, or a change in a side signal; inactive = no such curve, though single readings can be large or run the other way
CASP7 redox cys: caspase-7 inhibition with cysteine present. shares compounds with FBPA coupling cs. caspase-7 enzyme with cysteine, fluorogenic substrate, redox counterscreen. Potency, µM (series often up to 57.5 µM), for the others: top-dose activity change, negative = inhibition, hits mostly inhibitors. 60 tested, under 10 active. AID 908
CASP7 redox cat: caspase-7 inhibition with catalase present; shares compounds with FBPA coupling cs; Caspase-7 Ac-DEVD-AFC fluorescence rate, catalase buffer; Potency, µM (doses to about 57.5 µM), for inactives: at the highest dose activity, negative = inhibition, most hits filed as inhibitors; 30 tested, under 10 active; AID 909
Casp1 cysteine: inhibits caspase-1 in cysteine buffer, redox counter-screen | AID 929 | 60 tested, under 10 active | recombinant caspase-1, fluorogenic substrate, cysteine buffer | shares compounds with FBPA coupling cs | Potency, µM (doses to about 57.5 µM), inactives show at the top dose activity change, negative = inhibition, most hits filed as inhibitors
* hit, by the source's call; ? = inconclusive; / = not tested or not shown. Hits are enriched below; roughly 0.92% of the tested compounds scored in any of these assays. Unless noted, calls follow the shape of the dose curve; as a rule, active = well fitted inhibition curve with a large enough effect in the main read-out, with a control signal flat; inconclusive = small, poorly fitted or top-dose-only effect, or a change in a side signal; inactive = no such curve, though single readings can be large or run the other way.

SMILES	B2AR arrestin	GALK inhibitor	FBPA coupling cs	miR-21 reporter	Giardia killer	uPA surface inh	CASP1 inh CRC	Casp7 confirm	CASP7 redox cys	Casp1 cysteine	others
O=C1Cc2ccccc2C(=O)N1CCc1ccccc1	0%	2%	-47*	1%	-9	6%	6.3µM*	10µM*	-3%	-1%
COc1ccc(Br)cc1CNc1ccc(O)cc1	16%	0%	-63*	6%	-1	-6%	-2%	-1%	3%	8%	Casp1 catalase=1%;CASP7 redox cat=-5%
Oc1ccc(NCc2ccc(OCc3ccccc3)cc2)cc1	?	1%	-10	-19%	-14	?	/	/	/	/
CCc1ccc(CNc2ccc(O)cc2)cc1	?	-2%	-58*	21%	3	-2%	-5%	-3%	-4%	9%
CCCCCCC(=O)N1CCC(c2nc3c(nnn3Cc3ccccc3Cl)c(=O)[nH]2)CC1	0%	0%	-3	12%	22	-11%	-14%	4µM*	5µM*	2%
O=C(C1CCCCC1)N1CCC(c2nc3c(nnn3Cc3ccccc3Cl)c(=O)[nH]2)CC1	/	/	/	/	-21	0%	/	/	/	/
Cc1ccc(NC(=O)N2CCC(c3nc4c(nnn4Cc4cccc(Cl)c4)c(=O)[nH]3)CC2)cc1	0%	-1%	1	-16%	-17	/	-10%	?	?	3%
O=C(Nc1ccc(F)cc1)N1CCC(c2nc3c(nnn3Cc3cccc(Cl)c3)c(=O)[nH]2)CC1	0%	0%	4	-1%	3	/	/	/	/	/
COc1cc2c(Cc3c4c5c(cc(OC)c(OC)c5c5c(OC)c(OC)ccc35)CCN4C)c3c4c(cc(OC)c(OC)c4c2cc1OC)CCN3C	/	/	-33*	/	/	/	?	-43%	-8%	?
COc1cc2c(C(=O)c3ccccc3)c3c4c(cc(OC)c(OC)c4c2cc1OC)CCN3C	/	/	-14	/	/	/	/	/	/	/
CCOc1ccc(CC(=O)NCc2ccc3c(c2)CCN3C(C)=O)cc1OCC	/	/	/	1%	/	/	/	/	/	/
CCOC(=O)C1CCC(CN(Cc2cccc(Br)c2)S(=O)(=O)c2ccc(Cl)cc2)CC1 (stereo unspecified)	/	/	/	7%	/	/	/	/	/	/
CC1=C(C(=O)Nc2cc(-c3cccc(F)c3)[nH]n2)C2(CCCCC2)OC1=O	-1%	-2%	-2	11%	18	15%	-8%	-35%	-38%	3%	Casp1 catalase=-2%;CASP7 redox cat=-11%
COc1ccc(-c2noc(N3CCN(c4ccc(C)cc4)C(C)C3)n2)cc1OC (stereo unspecified)	/	/	/	0%	/	/	/	/	/	/
Cc1cc(O)c(-c2n[nH]c3c2C(c2cccc(O)c2)N(Cc2cccnc2)C3=O)cc1Cl (stereo unspecified)	3%	-1%	3	-25%	1	-1%	-7%	-25%	-30%	15%

Molecules above with an aryl methoxy group (4):
SMILES	B2AR arrestin	GALK inhibitor	FBPA coupling cs	miR-21 reporter	Giardia killer	uPA surface inh	CASP1 inh CRC	Casp7 confirm	CASP7 redox cys	Casp1 cysteine	others
COc1ccc(Br)cc1CNc1ccc(O)cc1	16%	0%	-63*	6%	-1	-6%	-2%	-1%	3%	8%	Casp1 catalase=1%;CASP7 redox cat=-5%
COc1cc2c(Cc3c4c5c(cc(OC)c(OC)c5c5c(OC)c(OC)ccc35)CCN4C)c3c4c(cc(OC)c(OC)c4c2cc1OC)CCN3C	/	/	-33*	/	/	/	?	-43%	-8%	?
COc1cc2c(C(=O)c3ccccc3)c3c4c(cc(OC)c(OC)c4c2cc1OC)CCN3C	/	/	-14	/	/	/	/	/	/	/
COc1ccc(-c2noc(N3CCN(c4ccc(C)cc4)C(C)C3)n2)cc1OC (stereo unspecified)	/	/	/	0%	/	/	/	/	/	/
